The target in one assay is PPAR-α (Homo sapiens, UniProt Q07869). Put plainly: Measurement of PPAR-α activity (GAL4 luciferase reporter assay in CV-1 cells). The settings on record: 100(A/B): A = maximum PPAR-α activity of test compound at 3, 10, 30 and 100 μM, B = activity of the compound of WO/2011/058154 at 100 μM, 18 to 20 hours. The protocol: The PPAR-α activity was measured according to the published article (THE JOURNAL OF BIOLOGICAL CHEMISTRY Vol. 270, No 0.22: 12953-12956, 1995).
Plasmids used for the PPAR-α activity measurement were constructed as follows. A luciferase expression plasmid (UAS×5-TK-Luc) used was obtained by introducing a sequence in which five yeast GAL4-binding sequences are linked in tandem into a portion upstream of a thymidine kinase promoter of pTAL-Luc (Takara Bio Inc., 6252-1). A PPAR-α receptor expression plasmid (hGR-GAL4-hPPARα) used was obtained by introducing a human GR N-terminal region (1-76aa), a yeast GAL4 DNA-binding region (1-147aa), and a PPARα ligand-binding region (167-468aa) between Not I and Sal I sites of pExchange-1 Core Vector (Invitrogen, 211176).
A reporter assay was conducted by the following method using African green monkey kidney-derived CV-1 cells. The CV-1 cells were seeded in a 96-well plate (Thermo Fisher Scientific K.K., 4938) at 2×10^4 cells/well by using a 10% FBS-containing DMEM (NACALAI TESQUE, INC., 0845874) medium. After culturing under conditions of 37° C. and 5% CO2 for 2 hours, the cells were transfected with the plasmids. […] After the culturing, the luciferase activity was measured with Luminescensor JNR (ATTO) by using Bright-Glo (Promega, E2620).
The fold induction of PPAR-α by each test compound was calculated by the following method. […]
For orientation: In a reporter assay the amount or activity of a reporter protein is the signal.

Chains of the proteins cited; added tags and fusions are not shown. Residues count along the entry.
UniProt Q07869, 167-468 limits assumed: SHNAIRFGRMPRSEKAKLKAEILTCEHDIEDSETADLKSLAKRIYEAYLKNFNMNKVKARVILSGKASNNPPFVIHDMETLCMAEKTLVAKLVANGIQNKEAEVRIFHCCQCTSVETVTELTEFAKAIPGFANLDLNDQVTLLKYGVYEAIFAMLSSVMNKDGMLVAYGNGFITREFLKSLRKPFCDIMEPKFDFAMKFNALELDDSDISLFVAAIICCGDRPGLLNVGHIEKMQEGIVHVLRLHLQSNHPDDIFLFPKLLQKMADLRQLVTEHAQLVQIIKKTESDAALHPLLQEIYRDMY
UniProt P13807, whole entry: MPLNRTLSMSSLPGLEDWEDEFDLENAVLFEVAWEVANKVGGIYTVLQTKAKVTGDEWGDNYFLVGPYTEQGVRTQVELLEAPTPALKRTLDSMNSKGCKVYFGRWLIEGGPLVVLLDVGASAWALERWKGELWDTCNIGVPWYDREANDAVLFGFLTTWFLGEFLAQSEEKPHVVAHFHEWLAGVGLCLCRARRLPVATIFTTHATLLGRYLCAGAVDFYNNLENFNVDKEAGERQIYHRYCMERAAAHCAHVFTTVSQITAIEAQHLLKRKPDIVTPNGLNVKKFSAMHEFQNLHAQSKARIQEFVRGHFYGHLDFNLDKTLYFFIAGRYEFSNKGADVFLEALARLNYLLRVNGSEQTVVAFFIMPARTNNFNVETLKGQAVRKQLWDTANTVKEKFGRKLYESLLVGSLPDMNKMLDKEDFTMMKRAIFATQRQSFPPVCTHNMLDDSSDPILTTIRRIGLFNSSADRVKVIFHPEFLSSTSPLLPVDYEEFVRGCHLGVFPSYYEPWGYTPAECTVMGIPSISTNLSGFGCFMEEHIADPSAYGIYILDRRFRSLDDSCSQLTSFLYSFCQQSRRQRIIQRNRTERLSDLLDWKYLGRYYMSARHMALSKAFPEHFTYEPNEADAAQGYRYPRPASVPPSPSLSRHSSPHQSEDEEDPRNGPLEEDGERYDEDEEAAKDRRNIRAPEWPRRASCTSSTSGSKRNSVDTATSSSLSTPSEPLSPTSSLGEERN

The subject of assay [1] is Rat skeletal muscle-derived L6 myoblasts (differentiated into myotube cells). Put plainly: Evaluation of glycogen accumulation in L6. The settings on record: [14C] glycogen from D-[U-C14] glucose, 3 hours incubation, 100% = compound of Example 1 of WO/2011/058154 at 30 μM. As for the experimental part:
The glycogen accumulation activity was evaluated in skeletal muscle cells according to the published article (ANALYTICAL BIOCHEMISTRY, Vol. 261: 159-163, 1998) by the following method. Rat skeletal muscle-derived L6 myoblasts (ATCC) were seeded in a 96-well collagen-coated plate (IWAKI, 4860-010) by using a growth medium (10% FBS-containing α-MEM medium (NACALAI TESQUE, INC., 21444-05)) under a condition of 4×10^4 cells/100 μL/well. After culturing under conditions of 37° C. and 5% CO2 overnight, the medium was replaced with a differentiation medium (2% FBS-containing α-MEM medium), followed by culturing for 3 days to differentiate the myoblasts into myotube cells. […] After ethanol remaining on the filter was completely removed by drying, MicroScint40 (PerkinElmer Inc.) was added at 50 μL/well, the amount of [14C] glycogen was measured with TopCountNXT (PerkinElmer Inc.). The activity of each test compound was calculated by the following method. Specifically, the relative activity (%) was calculated as 100×(B−A)/(C−A), where A represents a value (cpm) measured for a well not containing the compound but containing only DMSO, B represents a value measured for a well containing the compound and DMSO, and C represents a value measured for a well containing the compound of Example 1 of WO/2011/058154 at a final concentration of 30 μM. […]

In assay [2] the target is human GYS1 (glycogen synthase) (Homo sapiens, UniProt P13807). Put plainly: Measurement of glycogen synthase activity. The settings on record: concentration causing 50% increase in relative activity; 100% = compound of Example 1 of WO/2011/058154 at 10 μM; 10 mM Glucose-6-phosphate; 37° C. for 25 minutes (Examples 1 to 61 and 67 to 82) or 20 minutes (Examples 62 to 66); absorbance at 340 nm. As for the experimental part:
A human GYS1 expression plasmid (pCDNA3.1(+)-hGYS1) was constructed by the following method. By using a human skeletal muscle cDNA of Human MTC Panel I (Takara Bio Inc., 636742) as a template, a human GYS1 gene was amplified by a PCR method using cloning primers (Forward Primer: ATGCCTTTAAACCGCAC, Reverse Primer: TTAGTTACGCTCCTCGC). By using the amplified human GYS1 sequence as a template, restriction enzyme sequences were added by a PCR method using sub-cloning primers (Forward Primer: […], and Reverse Primer: […]), and then the human GYS1 gene was introduced between Xho I and Xba I sites of pCDNA3.1(+) (Invitrogen, V790-20).
Glycogen synthase was prepared by the following method. […]
The glycogen synthase activity was measured by the following method. […]
Moreover, an enzyme solution containing 50 mM Tris-HCl (pH 8.0), 27 mM DTT (NACALAI TESQUE, INC., 14128-04), 0.2 mg/mL bovine serum albumin, 0.17 mg/mL glycogen synthase, and 1.5 μL pyruvate kinase/lactate dehydrogenase solution (Sigma-Aldrich, P0294) was added at 18 μL/well to prepare reaction solutions. After the reaction solutions were incubated (at 37° C. for 25 minutes for Examples 1 to 61 and 67 to 82 or at 37° C. for 20 minutes for Examples 62 to 66), the absorbance at 340 nm was measured by using Benchmark Plus (Bio-Rad Laboratories, Inc.).
The activity of each test compound was calculated by the following method. […]

pEC50: −log10 of the molar value.

The pEC50 is the EC50 on a negative log10 scale, so that one unit is a factor of ten. The low end stands for a large EC50, the high end for a small EC50.

For the compound `O=C(O)[C@@H]1CCCN1C(=O)c1cccc(COc2ccc(-c3ccc(F)cc3F)cc2)c1`, the “Relative fold induction (%) of PPAR α” value on PPAR-α came to 100%. Further, the pEC50 in assay [1] is 4.80 to 4.85; in assay [2], 6.77 to 7.29.

The values are drawn from US20160046592A1, “PHARMACEUTICAL COMPOSITION FOR THE TREATMENT OF DIABETES” (Ajinomoto Co., Inc., priority 2013, published 2016).
